Measured values published in ChEMBL document CHEMBL5375987, “Structural Fusion of Natural and Synthetic Ligand Features Boosts RXR Agonist Potency” (J Med Chem, 2023).
The source made the active and inactive calls. The rule behind the calls is not given here.

Chains of the proteins cited; added tags and fusions are not shown. Lines headed by an entry give the natural chain unless they say otherwise; changes in a name come on top.
UniProt P43354, whole entry: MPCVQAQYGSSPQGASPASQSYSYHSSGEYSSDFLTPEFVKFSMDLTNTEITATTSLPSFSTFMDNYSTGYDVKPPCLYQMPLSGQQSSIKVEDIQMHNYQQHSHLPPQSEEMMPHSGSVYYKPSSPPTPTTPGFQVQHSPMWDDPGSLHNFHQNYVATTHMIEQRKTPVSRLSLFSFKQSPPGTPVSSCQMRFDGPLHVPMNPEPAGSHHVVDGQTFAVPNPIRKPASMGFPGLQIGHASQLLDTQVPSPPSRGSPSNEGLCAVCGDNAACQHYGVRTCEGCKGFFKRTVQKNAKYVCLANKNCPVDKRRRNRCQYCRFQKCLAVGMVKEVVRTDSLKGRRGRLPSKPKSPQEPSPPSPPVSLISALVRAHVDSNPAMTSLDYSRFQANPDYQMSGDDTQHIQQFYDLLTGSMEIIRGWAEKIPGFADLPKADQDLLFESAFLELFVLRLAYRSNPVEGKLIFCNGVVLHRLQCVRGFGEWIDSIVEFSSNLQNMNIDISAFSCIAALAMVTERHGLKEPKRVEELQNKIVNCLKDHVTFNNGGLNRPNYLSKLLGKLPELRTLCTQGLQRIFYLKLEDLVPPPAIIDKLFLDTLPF
UniProt P22736, whole entry: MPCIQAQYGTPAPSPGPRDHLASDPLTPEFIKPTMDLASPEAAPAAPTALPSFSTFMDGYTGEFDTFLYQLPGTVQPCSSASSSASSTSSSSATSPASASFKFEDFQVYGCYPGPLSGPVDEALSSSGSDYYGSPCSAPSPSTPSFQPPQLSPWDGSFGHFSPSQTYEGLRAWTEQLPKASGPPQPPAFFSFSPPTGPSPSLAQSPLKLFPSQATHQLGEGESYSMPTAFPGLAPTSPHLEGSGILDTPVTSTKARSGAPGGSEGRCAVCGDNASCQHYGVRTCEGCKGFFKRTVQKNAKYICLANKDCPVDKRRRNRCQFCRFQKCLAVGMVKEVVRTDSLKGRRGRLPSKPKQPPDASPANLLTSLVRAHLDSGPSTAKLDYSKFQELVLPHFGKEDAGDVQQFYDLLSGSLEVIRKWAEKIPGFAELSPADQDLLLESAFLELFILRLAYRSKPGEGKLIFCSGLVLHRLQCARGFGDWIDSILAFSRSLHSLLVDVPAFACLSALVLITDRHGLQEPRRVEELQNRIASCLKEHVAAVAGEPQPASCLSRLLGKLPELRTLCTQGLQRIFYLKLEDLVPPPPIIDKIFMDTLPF
UniProt Q9Y466: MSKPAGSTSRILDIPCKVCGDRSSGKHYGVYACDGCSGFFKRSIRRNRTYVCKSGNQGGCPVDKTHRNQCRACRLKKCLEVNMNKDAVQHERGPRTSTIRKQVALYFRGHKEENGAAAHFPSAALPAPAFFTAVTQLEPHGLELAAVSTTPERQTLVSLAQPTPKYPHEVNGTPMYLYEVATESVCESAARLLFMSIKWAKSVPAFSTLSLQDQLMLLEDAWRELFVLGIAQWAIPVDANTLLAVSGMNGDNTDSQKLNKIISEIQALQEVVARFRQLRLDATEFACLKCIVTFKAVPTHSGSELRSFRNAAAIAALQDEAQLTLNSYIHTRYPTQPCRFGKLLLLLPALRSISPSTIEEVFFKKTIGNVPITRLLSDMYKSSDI
UniProt Q13133, whole entry: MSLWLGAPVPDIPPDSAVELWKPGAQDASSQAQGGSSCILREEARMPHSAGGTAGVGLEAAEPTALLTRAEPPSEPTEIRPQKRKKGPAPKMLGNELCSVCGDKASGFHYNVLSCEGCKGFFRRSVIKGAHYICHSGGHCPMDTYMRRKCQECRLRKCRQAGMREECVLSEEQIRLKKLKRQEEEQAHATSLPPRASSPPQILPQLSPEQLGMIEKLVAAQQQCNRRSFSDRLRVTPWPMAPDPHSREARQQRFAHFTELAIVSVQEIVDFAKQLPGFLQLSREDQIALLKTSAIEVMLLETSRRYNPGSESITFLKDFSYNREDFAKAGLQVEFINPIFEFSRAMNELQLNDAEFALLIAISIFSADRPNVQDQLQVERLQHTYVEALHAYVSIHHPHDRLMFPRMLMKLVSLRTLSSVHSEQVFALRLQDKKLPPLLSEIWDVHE
UniProt P51449: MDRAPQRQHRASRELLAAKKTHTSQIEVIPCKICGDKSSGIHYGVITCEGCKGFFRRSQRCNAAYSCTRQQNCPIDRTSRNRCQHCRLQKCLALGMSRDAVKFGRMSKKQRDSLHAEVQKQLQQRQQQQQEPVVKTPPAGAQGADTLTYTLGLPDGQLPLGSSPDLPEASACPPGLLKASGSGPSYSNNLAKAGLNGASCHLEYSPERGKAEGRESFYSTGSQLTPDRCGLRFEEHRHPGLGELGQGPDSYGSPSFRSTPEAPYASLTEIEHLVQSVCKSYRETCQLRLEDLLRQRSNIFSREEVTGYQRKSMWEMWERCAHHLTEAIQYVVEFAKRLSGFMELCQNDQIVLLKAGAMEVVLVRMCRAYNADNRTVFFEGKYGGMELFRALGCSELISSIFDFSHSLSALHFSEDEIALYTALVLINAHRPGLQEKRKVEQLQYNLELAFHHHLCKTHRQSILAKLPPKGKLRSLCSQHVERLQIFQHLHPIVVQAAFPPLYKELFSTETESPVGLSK

Experiments:
[1] = biological target: T1, Bile acid receptor (Homo sapiens) (UniProt Q96RI1); experiment: Inverse agonist activity at NR1H4 (unknown origin) at 1 uM
T1 sequence (whole entry): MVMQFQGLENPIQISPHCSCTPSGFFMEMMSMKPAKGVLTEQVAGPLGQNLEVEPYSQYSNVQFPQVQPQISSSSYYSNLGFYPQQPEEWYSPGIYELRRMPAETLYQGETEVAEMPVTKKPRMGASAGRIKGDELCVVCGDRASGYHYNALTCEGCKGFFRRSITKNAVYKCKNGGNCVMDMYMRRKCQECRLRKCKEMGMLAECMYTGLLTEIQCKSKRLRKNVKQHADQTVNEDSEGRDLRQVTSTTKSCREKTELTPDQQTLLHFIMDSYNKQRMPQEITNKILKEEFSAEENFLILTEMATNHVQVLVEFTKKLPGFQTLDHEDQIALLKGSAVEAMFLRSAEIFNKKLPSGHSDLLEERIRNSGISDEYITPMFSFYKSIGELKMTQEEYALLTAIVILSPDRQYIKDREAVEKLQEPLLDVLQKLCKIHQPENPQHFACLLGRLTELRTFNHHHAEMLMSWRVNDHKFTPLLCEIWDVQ

[2] = biological target: T2, Nuclear receptor subfamily 2 group C member 1 (Homo sapiens) (UniProt P13056); experiment: Agonist activity at NR2C1 (unknown origin) at 1 uM
T2 sequence (whole entry): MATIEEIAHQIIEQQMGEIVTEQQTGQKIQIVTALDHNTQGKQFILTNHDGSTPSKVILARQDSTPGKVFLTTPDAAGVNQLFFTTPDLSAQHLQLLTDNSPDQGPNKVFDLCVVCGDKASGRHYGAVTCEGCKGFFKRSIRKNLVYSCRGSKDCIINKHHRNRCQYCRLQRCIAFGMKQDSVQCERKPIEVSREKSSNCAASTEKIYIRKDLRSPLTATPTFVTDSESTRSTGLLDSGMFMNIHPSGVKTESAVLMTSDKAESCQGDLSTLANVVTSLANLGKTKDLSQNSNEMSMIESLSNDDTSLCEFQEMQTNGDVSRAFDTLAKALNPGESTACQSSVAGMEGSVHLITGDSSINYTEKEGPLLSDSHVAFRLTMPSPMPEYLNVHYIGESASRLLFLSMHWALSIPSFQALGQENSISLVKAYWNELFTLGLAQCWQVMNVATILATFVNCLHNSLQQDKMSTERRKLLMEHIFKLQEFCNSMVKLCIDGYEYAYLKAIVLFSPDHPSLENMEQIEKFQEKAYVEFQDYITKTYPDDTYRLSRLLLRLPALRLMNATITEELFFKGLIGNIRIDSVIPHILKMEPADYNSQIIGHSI

[3] = biological target: T1, Bile acid receptor (Homo sapiens); experiment: Antagonist activity at NR1H4 (unknown origin) at 1 uM
[4] = biological target: Nuclear receptor subfamily 4 group A member 2 (Homo sapiens) (UniProt P43354); experiment: Agonist activity at NR4A2 (unknown origin) at 1 uM
[5] = biological target: Nuclear receptor subfamily 4 group A member 2 (Homo sapiens) (UniProt P43354); experiment: Antagonist activity at NR4A2 (unknown origin) at 1 uM
[6] = biological target: T3, Thyroid hormone receptor alpha (Homo sapiens) (UniProt P10827); experiment: Agonist activity at NR1A1 (unknown origin) at 1 uM
T3 sequence (whole entry): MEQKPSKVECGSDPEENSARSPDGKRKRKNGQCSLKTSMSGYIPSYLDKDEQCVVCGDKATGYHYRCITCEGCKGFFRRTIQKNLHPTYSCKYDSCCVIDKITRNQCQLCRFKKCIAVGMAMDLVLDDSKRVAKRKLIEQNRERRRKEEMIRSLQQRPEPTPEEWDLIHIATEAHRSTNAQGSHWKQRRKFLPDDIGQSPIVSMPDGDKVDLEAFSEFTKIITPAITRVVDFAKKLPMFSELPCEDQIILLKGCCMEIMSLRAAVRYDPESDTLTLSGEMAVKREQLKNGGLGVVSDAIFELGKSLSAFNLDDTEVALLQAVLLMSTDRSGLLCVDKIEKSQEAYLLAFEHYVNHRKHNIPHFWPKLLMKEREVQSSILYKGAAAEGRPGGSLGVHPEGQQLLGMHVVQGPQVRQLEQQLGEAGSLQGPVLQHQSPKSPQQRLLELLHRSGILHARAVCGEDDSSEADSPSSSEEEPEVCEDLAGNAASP

[7] = biological target: Nuclear receptor subfamily 4immunitygroup A member 1 (Homo sapiens) (UniProt P22736); experiment: Agonist activity at NR4A1 (unknown origin) at 1 uM
[8] = biological target: Nuclear receptor subfamily 2 group E member 1 (Homo sapiens) (UniProt Q9Y466); experiment: Inverse agonist activity at NR2E1 (unknown origin) at 1 uM
[9] = biological target: Oxysterols receptor LXR-alpha (Homo sapiens) (UniProt Q13133); experiment: Agonist activity at NR1H3 (unknown origin) at 1 uM
[10] = biological target: T4, Hepatocyte nuclear factor 4-alpha (Homo sapiens) (UniProt P41235); experiment: Antagonist activity at NR2A1 (unknown origin) at 1 uM
T4 sequence (whole entry): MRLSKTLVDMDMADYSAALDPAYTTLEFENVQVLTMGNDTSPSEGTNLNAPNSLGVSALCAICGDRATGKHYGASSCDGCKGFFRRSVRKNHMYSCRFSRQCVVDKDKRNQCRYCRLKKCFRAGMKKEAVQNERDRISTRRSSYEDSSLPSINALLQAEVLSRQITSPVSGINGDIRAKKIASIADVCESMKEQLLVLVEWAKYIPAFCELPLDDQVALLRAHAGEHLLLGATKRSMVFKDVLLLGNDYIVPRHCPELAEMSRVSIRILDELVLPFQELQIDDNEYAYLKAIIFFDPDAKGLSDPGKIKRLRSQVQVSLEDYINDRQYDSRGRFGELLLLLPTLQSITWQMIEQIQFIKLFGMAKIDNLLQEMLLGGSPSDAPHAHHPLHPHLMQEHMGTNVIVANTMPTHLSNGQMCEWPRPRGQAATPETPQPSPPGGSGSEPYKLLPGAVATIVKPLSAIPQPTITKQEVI

[11] = biological target: Nuclear receptor subfamily 2 group E member 1 (Homo sapiens) (UniProt Q9Y466); experiment: Agonist activity at NR2E1 (unknown origin) at 1 uM
[12] = biological target: Nuclear receptor ROR-gamma (Homo sapiens) (UniProt P51449); experiment: Antagonist activity at NR1F3 (unknown origin) at 1 uM
[13] = biological target: T3, Thyroid hormone receptor alpha (Homo sapiens); experiment: Inverse agonist activity at NR1A1 (unknown origin) at 1 uM

Activity [1]: inactive | Activity [2]: inactive | Activity [3]: inactive | Activity [4]: inactive | Activity [5]: inactive | Activity [6]: inactive | Activity [7]: inactive | Activity [8]: inactive | Activity [9]: inactive | Activity [10]: inactive | Activity [11]: inactive | Activity [12]: inactive | Activity [13]: inactive
Compound: O=C(O)[C@@H]1C[C@H]1c1nc(-c2ccccc2)c(-c2cc(C(F)(F)F)cc(C(F)(F)F)c2)o1 (racemic)
